Test results: patent publication US7297705B2, “Azaindolylalkylamine derivatives as 5-hydroxytryptamine-6 ligands” (Wyeth, priority 2001, dated 2007)

Chains of the proteins cited; added tags and fusions are not shown.
UniProt P50406, whole entry: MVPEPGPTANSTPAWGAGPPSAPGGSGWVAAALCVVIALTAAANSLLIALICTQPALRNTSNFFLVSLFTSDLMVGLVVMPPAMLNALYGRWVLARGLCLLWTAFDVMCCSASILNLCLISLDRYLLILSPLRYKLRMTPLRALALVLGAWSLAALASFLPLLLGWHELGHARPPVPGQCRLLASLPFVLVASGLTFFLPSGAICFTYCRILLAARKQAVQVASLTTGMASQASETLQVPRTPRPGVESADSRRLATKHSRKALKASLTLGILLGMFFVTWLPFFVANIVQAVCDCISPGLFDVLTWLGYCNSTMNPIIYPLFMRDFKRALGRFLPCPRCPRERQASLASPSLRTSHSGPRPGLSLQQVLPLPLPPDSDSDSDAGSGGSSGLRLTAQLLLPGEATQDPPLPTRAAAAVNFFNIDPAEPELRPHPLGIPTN

What follows are compounds tested against human cloned 5-HT6 receptors (Homo sapiens, UniProt P50406) (assay: 5-HT6 binding affinity, [3H]-LSD displacement on membranes of Hela cells expressing human cloned 5-HT6 receptors). Details: read-out: 5-HT6 Binding Ki; [3H]-LSD 3.0 nM, 120 min at room temperature, Ki=IC50/(1+L/KD).
With `NCCc1cn(S(=O)(=O)c2cccc(Br)c2)c2ncccc12` the Ki was 5.6 nM.
`NCCc1cn(S(=O)(=O)c2ccc(Cl)c(Cl)c2)c2ncccc12` gave a Ki of 20.3 nM.
`NCCc1cn(S(=O)(=O)c2cc(Cl)ccc2Cl)c2ncccc12` was tested, and the Ki was 72.7 nM.
In the case of `NCCc1cn(S(=O)(=O)c2cccc(Cl)c2Cl)c2ncccc12`, the Ki is reported as 2.5 nM.
Compound `NCCc1cn(S(=O)(=O)c2cc(Cl)cc(Cl)c2)c2ncccc12` has a Ki of 16.3 nM.
`CN(C)CCc1cn(S(=O)(=O)c2ccc(C(C)(C)C)cc2)c2ncccc12` showed a Ki of 60.3 nM.
